Experiment: Circular dichroism spectroscopy of LSALT peptide and analogs
Format: physicochemical
Design: Inducible Helical Structure (50% TFE-benign): unit not given here
Method: The physical and chemical properties of protein therapeutics are critical factors that influence the ease of manufacturing, development and clinical use. The LSALT peptide was evaluated in terms of its solubility, aggregation state and stability using a variety of biophysical methods.
In circular dichroism spectroscopy the ellipticity value at 222 nm is a measure of a-helical content. 50% trifluoroethanol is a hydrophobic solvent and induces α-helical structure if the structure can be induced. All of the peptides tested can be induced to adopt α-helical structure. The peptides are random coils in benign conditions (non-denaturing). The buffer conditions were aqueous phosphate, pH 7.0.

Q: Which “inducible α-helical structure (in words)” value (50% trifluoroethanol) does the source give for Bio-LSALTPSPSWLKYKAL [Biotin-Native] here?
A: The value was “definite advantage for inducible α-helical structure”.

Q: What about the “Inducible Helical Structure (50% TFE-benign)” value (222 nm) of the same substance?
A: Its value is 43,134.

Q: And the “[θ] (222 nm) 50% TFE” value (222 nm, 50% TFE)?
A: Its value is −90148.

Q: And the “% Inducible Helical Structure (Inducible/50% TFE)” value (222 nm, 50% TFE is considered 100% folded)?
A: Its value is 47.8%.

Q: And the “[θ] (222 nm) Benign (No TFE)” value (222 nm, benign buffer (100 mM KCl, 50 mM Na2HPO4/NaH2PO4, pH 7.0))?
A: Its value is −47013.

— patent publication US11286278B2, “DPEP-1 binding agents and methods of use” (Arch Biopartners, Inc., priority 2018, dated 2022)
